Data from article PMC4561586 (Biochimica et biophysica acta, 2015).

Biological target: T1, Nostoc linoleate 10S-dioxygenase (10S-DOX) (Nostoc punctiforme, UniProt B2J5P4)
T1 sequence (B2J5P4 1-542): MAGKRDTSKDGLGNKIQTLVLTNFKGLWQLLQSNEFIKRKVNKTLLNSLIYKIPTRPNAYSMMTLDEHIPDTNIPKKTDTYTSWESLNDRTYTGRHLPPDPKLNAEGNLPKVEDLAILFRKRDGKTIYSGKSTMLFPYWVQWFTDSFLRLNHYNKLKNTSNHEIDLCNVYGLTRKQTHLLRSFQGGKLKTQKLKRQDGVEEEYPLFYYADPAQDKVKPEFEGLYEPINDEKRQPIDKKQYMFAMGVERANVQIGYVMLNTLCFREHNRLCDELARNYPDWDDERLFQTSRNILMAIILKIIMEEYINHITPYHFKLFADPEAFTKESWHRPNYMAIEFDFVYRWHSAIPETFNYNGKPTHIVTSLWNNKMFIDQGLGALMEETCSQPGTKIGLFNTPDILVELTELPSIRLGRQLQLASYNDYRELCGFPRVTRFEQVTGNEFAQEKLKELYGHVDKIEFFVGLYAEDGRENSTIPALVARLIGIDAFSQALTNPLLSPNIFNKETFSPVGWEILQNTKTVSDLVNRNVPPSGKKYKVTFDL
Experiment: oxygen uptake assay, Lineweaver-Burk and Dixon plots
Assay type: biochemical

Question: For CCCCC/C=C/C=C/C=C/CCCCCCC(=O)O [β-CA, β-calendic acid], which Ki is on record?
Answer: Its Ki is 46 nM.
